In this test the target is T1, AXL kinase (Homo sapiens, UniProt P30530).
T1 construct: purchased Carna 08-107
T1 sequence (P30530 473-894 limits assumed): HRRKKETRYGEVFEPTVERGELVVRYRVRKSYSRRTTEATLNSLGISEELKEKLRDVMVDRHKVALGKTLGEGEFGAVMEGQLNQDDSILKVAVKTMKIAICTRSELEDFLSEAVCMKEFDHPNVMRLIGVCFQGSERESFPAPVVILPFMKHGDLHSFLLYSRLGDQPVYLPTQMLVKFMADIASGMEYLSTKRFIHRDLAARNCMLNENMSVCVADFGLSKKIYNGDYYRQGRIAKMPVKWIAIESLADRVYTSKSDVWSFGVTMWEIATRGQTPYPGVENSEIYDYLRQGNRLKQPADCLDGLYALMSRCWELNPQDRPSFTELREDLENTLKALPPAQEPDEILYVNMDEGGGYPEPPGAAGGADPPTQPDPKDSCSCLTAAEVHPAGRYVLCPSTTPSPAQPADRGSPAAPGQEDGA
Kind of test: Inhibitory activity of compound against AXL kinase (HTRF KinEASE). Format: biochemical. Particulars: AXL enzyme (Carna, 08-107), ATP 15 μM; "<" means below detection limit of the test. As to the method: a) AXL enzyme (Carna, 08-107) configuration and addition: a 1×enzyme buffer (200 μL of Enzymatic buffer kinase 5×, 10 μL of 500 mM MgCl2, 10 μL of 100 mM DTT and 6.26 μL of 2500 nM SEB are added with […] of H2O, and prepared into 1 ml of 1× enzyme buffer) is used. AXL enzyme is diluted from 33.33 ng/uL to 0.027 ng/μL (1.67×, final conc.=0.016 ng/uL), a BioTek (MultiFlo FX) automatic liquid dispenser is used, and 6 μL of enzyme solution having a 1.67-fold final concentration is added respectively to compound wells and positive control wells; and 6 μL of 1×Enzymatic buffer is added to negative control wells. […]
d) Pirparation and addition of detection reagent: Streptavidin-XL665 (Cisbio, 610SAXLG) is diluted with HTRF KinEASE detection buffer (cisbio) from 16.67 μM to 250 nM (4×), and the final concentration is 62.5 nM; TK Antibody-Cryptate (Cisbio) is diluted with HTRF KinEASE detection buffer (cisbio) from 100× to 5×, and the final concentration is 1×; XL665 and Antibody are mixed in equal volume; the mixed solution is added to each well at 10 μL by using the BioTek automatic dispenser, centrifuged at 2500 rpm for 30 s, and reacted at 25° C. for 1 h. After the reaction is completed, the resulting product is detected by a multi-function plate reader HTR1p […]
On the technique in general: In TR-FRET formats the signal depends on donor and acceptor labels being close together.

In general, IC50 refers to the midpoint of a concentration-inhibition curve. A low value points to greater potency.

Each structure is given as a SMILES string.

Turning to `CN1CCN(Cc2ccc(Nc3ncc(Cl)c(Nc4ccccc4S(=O)(=O)N(C)C)n3)cc2)CC1` [Positive drug 2 (TP0903), TP0903, reference compound], 16.4 nM corresponded to half-maximal inhibition (IC50).
